{
  "source": "patent US11421026B2",
  "about": "“Antibodies that bind human cannabinoid 1 (CB1) receptor” (BIRD ROCK BIO, Inc., priority 2015, dated 2022)",
  "system": "CB1 receptor signaling, WIN55,212 induced ERK phosphorylation in Trex-CHO CB1 receptor cells",
  "experiment": "ERK activation assay (western blot)",
  "assay_type": "cell-based, human",
  "conditions": "IgG 300 nM; WIN55,212 100 nM, 10 and 15 minutes",
  "data": [
    {"smiles": "Cc1c(C(=O)NN2CCCCC2)nn(-c2ccc(Cl)cc2Cl)c1-c1ccc(Cl)cc1", "note": "[Rimonabant, reference compound]", "values": [
      {"measurement": "block of WIN55,212 induced ERK phosphorylation", "value": "inhibited"}
    ]}
  ]
}
